# ARFGAP1 inh: inhibits rat ARF GTPase activating protein 1 | 360,000 tested, 0.26% active | Arfgap1-stimulated ARF1 GTP hydrolysis, GDP FP detection | Q62848 | inhibition, % at 16.5 µM | AID 651572;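 active = inhibition above a per-plate limit, mean inhibition of low control wells plus 3 SD, cut at about 25% in these data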;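 also: 0% = DMSO wells with enzyme and 100% = wells lacking Arfgap1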
#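 Assay system: Rat Arfgap1 GAP domain (His6, aa 1-136), purified enzyme | Buffer or medium: HEPES 25 mM pH 7.5, NaCl 150 mM, MgCl2, DTT | Schedule: GTP hydrolysis reaction 2 h at 25 °C | Signal: FP of antibody-bound GDP Alexa 633 tracer, ex 620/em 688 nm | Measure: Percent inhibition of Arfgap1-stimulated GTP hydrolysis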
# Yeast UUG start: modulators of start codon recognition fidelity in yeast; AID 602363; activity score, % at 18.7 µM; S. cerevisiae UUG-firefly luciferase reporter, luminescence/redox ratio; actives 0.13% (n = 350,000);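 active = replicate mean at a twofold rise or more, about +100% in these data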;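 note: firefly luciferase made from a UUG start codon reports start codon fidelity; reporter light over untreated wells divided by growth signal over untreated wells; some hits fall short of that in this replicate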
# MC4R barr agon: activates human MC4R beta-arrestin recruitment; P32245; 360,000 tested, 0.98% active; activation, % at 8.9 µM; U2OS MC4R beta-arrestin complementation, luminescence; percent of melanotan II response, DMSO zero;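 active = activation above a per-plate cutoff, the mean activation of sample wells on that plate plus 3 SD, cut at about 8% in these data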
# MC4R antag cAMP: antagonists of human melanocortin 4 receptor (MC4R) | MC4R-expressing cells, MTII-stimulated cAMP, LANCE TR-FRET | inhibition, % at 6.5 µM | 360,000 tested, 0.48% active;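 active = inhibition above its plate's cutoff, the mean of tested wells on that plate plus 3 SD, cut at about 29% in these data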;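 also: 0% = Melanotan II alone and 100% = Melanotan II plus saturating MCL0020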
#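 Material: U2OS-MC4R stable cell line | Reagent: Melanotan II challenge after compound preincubation | Doses: One concentration, 6.5 µM nominal | Incubation: 30-min compound preincubation, 1-h Melanotan II challenge, 1-h detection, room temperature | Signal: TR-FRET cAMP assay | Replicates: One well per compound, no replicates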
# NRP1-CendR mod: alters CendR peptide binding to human NRP-1; FAM-RPARPAR peptide binding to NRP-1, fluorescence polarization; O14786; inhibition, % at 25 µM; 360,000 tested, 0.85% active;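 active = inhibition or corrected inhibition above about 18%, plus a signal ratio from 0.5 to 1.5, limit read from the data, passing the limit was not always enough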
# ASAP1 GAP inh: ASAP1 ArfGAP inhibition. ASAP1-stimulated ARF1 GTP hydrolysis, GDP FP detection. inhibition, % at 16.5 µM. 360,000 tested, 0.19% active. AID 624377; in the data active = inhibition above about 25%;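 also: 0% = vehicle with enzyme and substrate and 100% = no enzyme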
# MC4R barr conf: human MC4R beta-arrestin agonism confirmation; 2,400 tested, 31% active; activation, % at 8.9 µM; shares compounds with MC4R barr agon; AID 602192; U2OS MC4R beta-arrestin recruitment, luminescence; scaled DMSO 0%, Melanotan II 100%;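 active = mean activation across replicates above the hit cutoff set in the earlier primary screen, cut at about 8% in these data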
# MOR-DOR barr ag: OPRM1-OPRD1 heterodimer agonism counter-screen; U2OS PathHunter beta-arrestin, beta-gal luminescence; percent of deltorphin B response, DMSO zero; 2,400 tested, 5.8% active; activation, % at 9.2 µM; shares compounds with MC4R barr agon;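 active = mean activation across replicates exceeds the hit threshold derived in the earlier primary screen, cut at about 18% in these data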;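 also: 100% = deltorphin B at 0.9 µM final and 0% = DMSO alone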
# Numbers without * were called inactive; . = not tested or not shown. Most compounds without a hit are left out; they make up all but 2.3% or so of the library.
# Letter code: A = ARFGAP1 inh; B = Yeast UUG start; C = MC4R barr agon; D = MC4R antag cAMP; E = NRP1-CendR mod; F = ASAP1 GAP inh; G = MC4R barr conf; H = MOR-DOR barr ag
[1] CC(/C=C1\SC(=S)N(CCC(=O)Nc2ccc(O)cc2)C1=O)=C\c1ccccc1
  A: 22 | B: -11 | C: 22* | D: 3 | E: 4 | F: 1 | G: 13* | H: 6
[2] O=C(CCN1C(=O)/C(=C/c2cccs2)SC1=S)Nc1ccc(O)cc1
  A: 6 | B: -19 | C: 11* | D: -4 | E: -51 | F: 8 | G: 6 | H: 6
[3] COc1cccc(/C=C2\SC(=S)N(CCCC(=O)Nc3ccc(C(=O)O)cc3)C2=O)c1
  A: -12 | B: -22 | C: -4 | D: -1 | E: -32 | F: 17 | G: . | H: .
[4] COc1cccc(/C=C2/SC(=S)N(CCCC(=O)Nc3ccc(O)cc3)C2=O)c1
  A: 16 | B: 9 | C: 9.9* | D: -4 | E: 6 | F: 2 | G: 20* | H: 5
[5] Cc1ccc(NC(=O)CN2C(=O)S/C(=C\c3cccn3C)C2=O)cc1
  A: 13 | B: -14 | C: 15* | D: 8 | E: -8 | F: -4 | G: -1 | H: 5
[6] CNC[C@H]1OCCCC[C@@H](C)Oc2ccc(NC(=O)Nc3ccc(C(F)(F)F)cc3)cc2C(=O)N([C@H](C)CO)C[C@@H]1C
  A: . | B: -3 | C: . | D: . | E: . | F: . | G: . | H: .
[7] COc1ccc(S(=O)(=O)N(C)C[C@@H]2Oc3ccc(NC(=O)Cc4ccccc4)cc3C(=O)N([C@H](C)CO)C[C@H]2C)cc1
  A: . | B: 5 | C: . | D: . | E: . | F: . | G: . | H: .
[8] Cc1cc(NC(=O)CCN2C(=O)/C(=C/c3ccccc3Cl)SC2=S)no1
  A: -8 | B: . | C: 16* | D: 4 | E: -13 | F: -13 | G: 5 | H: 3
[9] Cc1ccc(/C=C2\SC(=S)N(CCC(=O)NNC(=O)c3ccccc3O)C2=O)cc1
  A: 0 | B: -11 | C: 0 | D: 0 | E: 13 | F: -14 | G: . | H: .
[10] Cc1ccc(/C=C2\SC(=S)N(CCC(=O)NNS(=O)(=O)c3ccccc3)C2=O)cc1
  A: . | B: 7 | C: 47* | D: 14 | E: -4 | F: . | G: 1 | H: 6

# Additional structures follow:
# Letter code: A = ARFGAP1 inh; B = Yeast UUG start; C = MC4R barr agon; D = MC4R antag cAMP; E = NRP1-CendR mod; F = ASAP1 GAP inh; G = MC4R barr conf; H = MOR-DOR barr ag
[11] Cc1ccc(/C=C2/SC(=S)N(CCCC(=O)Nc3ccc(O)cc3)C2=O)cc1
  A: -1 | B: . | C: 17* | D: 0 | E: -13 | F: -11 | G: 7 | H: 8
[12] CN1CCN(C(=O)C[C@@H]2CC[C@H]3[C@@H](COC[C@@H](O)CN3Cc3ccc(Oc4ccccc4)cc3)O2)CC1
  A: . | B: 1 | C: . | D: . | E: . | F: . | G: . | H: .
[13] CCCOc1ccc2c(c1)C(=NN=C(N)N)c1cc(OCCC)ccc1-2
  A: 15 | B: -3 | C: 14* | D: 7 | E: -6 | F: 14 | G: 11* | H: 9
[14] Cc1ccc(S(=O)(=O)N[C@H]2CC[C@H](CCNC(=O)C3CC3)O[C@@H]2CO)cc1
  A: . | B: 11 | C: . | D: . | E: . | F: . | G: . | H: .
[15] CCN(CC)S(=O)(=O)c1ccc(Cl)c(NC(=O)COc2ccc(OC)cc2)c1
  A: -9 | B: . | C: 31* | D: -11 | E: 1 | F: 11 | G: 17* | H: 26*
[16] CCN(CC)S(=O)(=O)c1ccc(Cl)c(NC(=O)COc2ccc3c(C)cc(=O)oc3c2)c1
  A: 13 | B: -19 | C: -1 | D: -2 | E: 0 | F: 7 | G: . | H: .
[17] CCN(CC)S(=O)(=O)c1ccc(C)c(NC(=O)COc2ccc(Cl)cc2Br)c1
  A: 8 | B: -6 | C: 9.7* | D: -17 | E: 15 | F: -1 | G: 29* | H: 40*
[18] C[C@@H]1CCCCO[C@H](CN(C)C(=O)C2CCCCC2)[C@H](C)CN([C@H](C)CO)C(=O)c2cc(NC(=O)Cc3ccccc3)ccc2O1
  A: . | B: 33 | C: . | D: . | E: . | F: . | G: . | H: .
[19] CCN1CCN(c2cc(-c3ccccc3)nc3cc(-c4cccc(F)c4)nn23)CC1
  A: 4 | B: 4 | C: 12* | D: 14 | E: -2 | F: 7 | G: 2 | H: 14
[20] OC1CCN(c2cc(-c3ccccc3)nc3cc(-c4ccc(F)cc4)nn23)CC1
  A: 10 | B: . | C: 0 | D: 2 | E: 8 | F: 8 | G: . | H: .

# (continued)
# Letter code: A = ARFGAP1 inh; B = Yeast UUG start; C = MC4R barr agon; D = MC4R antag cAMP; E = NRP1-CendR mod; F = ASAP1 GAP inh; G = MC4R barr conf; H = MOR-DOR barr ag
[21] C[C@H]1CN([C@@H](C)CO)C(=O)Cc2cc(NC(=O)CCC(F)(F)F)ccc2O[C@H]1CN(C)C
  A: . | B: 5 | C: . | D: . | E: . | F: . | G: . | H: .
[22] COc1cc(/C=C/C(=O)OCC(=O)Nc2cc(C(F)(F)F)ccc2N2CCOCC2)ccc1O
  A: -5 | B: -25 | C: 24* | D: 3 | E: -2 | F: 7 | G: 5 | H: 15
[23] CN1C(=O)c2cc(NC(=O)c3cccs3)ccc2OC[C@@H]2O[C@@H](CC(=O)NCC3CC3)CC[C@@H]21
  A: . | B: 10 | C: . | D: . | E: . | F: . | G: . | H: .
[24] N#Cc1nc(-c2ccc(OCc3ccccc3)cc2)oc1NCc1cccnc1
  A: 12 | B: -6 | C: 2 | D: -3 | E: 10 | F: 15 | G: . | H: .
[25] N#Cc1nc(-c2ccc(OCc3ccc(Cl)cc3)cc2)oc1NCc1cccnc1
  A: 8 | B: -16 | C: 15* | D: -1 | E: 4 | F: -9 | G: 8 | H: 2
[26] CCn1c(SCC(=O)Nc2cc(C)on2)nc2c1c(=O)n(C)c(=O)n2C
  A: -10 | B: -7 | C: 0 | D: -4 | E: -4 | F: -2 | G: . | H: .
[27] Cc1cc(NC(=O)CSc2nc3c(c(=O)n(C)c(=O)n3C)n2C(C)C)no1
  A: 7 | B: -5 | C: 16* | D: -26 | E: -21 | F: 5 | G: 0 | H: 2
[28] Nc1cccnc1Oc1ccc(F)cc1
  A: 5 | B: . | C: -1 | D: 5 | E: -4 | F: -13 | G: . | H: .
[29] FC(F)(F)c1cccnc1Oc1ccc(C2=NCCS2)cc1
  A: 2 | B: -5 | C: 42* | D: 3 | E: -4 | F: -6 | G: 24* | H: 7
[30] NC(=O)c1c(NC(=O)C2COc3ccccc3O2)sc2c1CCN(Cc1ccccc1)C2 (stereo unspecified)
  A: -6 | B: 4 | C: 14* | D: 21 | E: -70 | F: 5 | G: 1 | H: 5

# Some values from above.
# NRP1-CendR mod, entry 25 stands at 4
# Yeast UUG start, entry 21 stands at 5
# MC4R antag cAMP, entry 27 stands at -26

# Exported with bars between the fields: two of the compounds above.
item | Compound | ARFGAP1 inh | Yeast UUG start | MC4R barr agon | MC4R antag cAMP | NRP1-CendR mod | ASAP1 GAP inh | MC4R barr conf | MOR-DOR barr ag
22 | COc1cc(/C=C/C(=O)OCC(=O)Nc2cc(C(F)(F)F)ccc2N2CCOCC2)ccc1O | -5 | -25 | 24* | 3 | -2 | 7 | 5 | 15
24 | N#Cc1nc(-c2ccc(OCc3ccccc3)cc2)oc1NCc1cccnc1 | 12 | -6 | 2 | -3 | 10 | 15 | . | .

# Continued.
# Letter code: A = ARFGAP1 inh; B = Yeast UUG start; C = MC4R barr agon; D = MC4R antag cAMP; E = NRP1-CendR mod; F = ASAP1 GAP inh; G = MC4R barr conf; H = MOR-DOR barr ag
[31] C[C@H](CO)N1C[C@H](C)[C@H](CN(C)CC2CCCCC2)Oc2c(NS(=O)(=O)c3ccc(Cl)cc3)cccc2C1=O
  A: . | B: 18 | C: . | D: . | E: . | F: . | G: . | H: .
[32] C[C@H]1CCCCO[C@@H](CN(C)C(=O)Nc2ccc(C(F)(F)F)cc2)[C@@H](C)CN([C@@H](C)CO)C(=O)c2cc(NC(=O)Nc3ccccc3)ccc2O1
  A: . | B: -10 | C: . | D: . | E: . | F: . | G: . | H: .
[33] N#Cc1ccc(-c2cccnc2)nc1SCC(=O)c1ccccc1
  A: 6 | B: -11 | C: 11* | D: 8 | E: -80 | F: 1 | G: 7 | H: 2
[34] Cc1c(P(=S)(c2ccccc2)c2ccccc2)[n+]2ccccc2n1C/C=C/c1ccccc1
  A: 7 | B: -14 | C: 15* | D: 15 | E: 8 | F: 8 | G: 6 | H: 37*
[35] COc1ccc(C(C)=O)cc1COC(=O)c1c(C)noc1C
  A: 6 | B: 0 | C: 0 | D: -3 | E: -3 | F: -8 | G: . | H: .
[36] COc1ccc(C(C)=O)cc1COC(=O)c1cc2ccccc2cc1O
  A: -10 | B: -6 | C: 11* | D: -16 | E: -3 | F: 2 | G: -1 | H: 6
[37] COc1ccc(C(C)=O)cc1COC(=O)c1cccnc1Cl
  A: -4 | B: . | C: -2 | D: -2 | E: -3 | F: 1 | G: . | H: .
[38] COc1ccc(C(C)=O)cc1COc1ccc(Cl)cc1Cl
  A: 13 | B: -14 | C: 11* | D: -7 | E: 14 | F: 4 | G: 0 | H: 2
[39] O=C(COC(=O)c1cc2ccccc2cc1O)Nc1ccccc1F
  A: 5 | B: 3 | C: 13* | D: 1 | E: -10 | F: 6 | G: 2 | H: 3
[40] COc1ccc(C(C)=O)cc1COC(=O)c1ccc(OCc2c(C)noc2C)cc1
  A: 3 | B: 0 | C: 16* | D: 1 | E: -1 | F: 2 | G: 9.2* | H: 3

# Compound activity (PubChem)
